Measurements taken from US6930114B2, “Pyrrolo (2.1a)dihydroisoquinolines and their use as phosphodiesterase 10a inhibitors” (Bayer Pharmaceuticals Corporation, priority 2000, dated 2005).

Protein sequences, listed by entry. Tags and fused reporters are not part of them. Residues count along the entry.
UniProt Q9Y233, 1-779 isoform 1: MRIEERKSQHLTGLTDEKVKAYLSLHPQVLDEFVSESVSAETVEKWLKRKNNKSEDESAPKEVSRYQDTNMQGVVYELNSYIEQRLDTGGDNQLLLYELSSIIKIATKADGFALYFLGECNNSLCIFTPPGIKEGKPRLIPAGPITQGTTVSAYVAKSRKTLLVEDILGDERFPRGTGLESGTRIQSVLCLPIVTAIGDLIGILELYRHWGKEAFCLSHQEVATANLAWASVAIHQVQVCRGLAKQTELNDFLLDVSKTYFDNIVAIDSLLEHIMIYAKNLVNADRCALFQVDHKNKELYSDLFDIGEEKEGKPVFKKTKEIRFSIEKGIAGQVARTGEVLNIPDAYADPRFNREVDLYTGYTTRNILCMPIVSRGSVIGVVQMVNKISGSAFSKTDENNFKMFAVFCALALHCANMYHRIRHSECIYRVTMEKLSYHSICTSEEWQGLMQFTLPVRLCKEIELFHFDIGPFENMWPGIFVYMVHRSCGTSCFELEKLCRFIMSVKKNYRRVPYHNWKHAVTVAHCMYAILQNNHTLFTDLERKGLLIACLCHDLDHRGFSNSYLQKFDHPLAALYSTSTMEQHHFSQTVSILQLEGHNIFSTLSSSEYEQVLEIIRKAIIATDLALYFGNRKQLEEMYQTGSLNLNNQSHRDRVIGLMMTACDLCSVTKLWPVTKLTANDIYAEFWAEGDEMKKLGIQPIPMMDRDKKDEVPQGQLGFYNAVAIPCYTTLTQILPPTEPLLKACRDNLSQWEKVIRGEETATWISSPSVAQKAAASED

Key:
[1] = tested on: MDA-MB-231 human breast carcinoma cells; experiment: In vitro proliferation inhibition assay (LDH activity, 72 hours); conditions: MDA-MB-231 cells
Description: MDA-MB-231 human breast carcinoma cells (ATCC # HTB26) were cultured in standard growth medium (DMEM), supplemented with 10% heat-inactivated FBS, 10 mM HEPES, 2 mM glutamine, 100 U/mL penicillin, and 100 μg/mL streptomycin) at 37° C. in 5% CO2 (vol/vol) in a humidified incubator. Cells were plated at a density of 3000 cells per well in 100 μL growth medium in a 96 well culture dish. 24 hours after plating, LDH activity was determined using the Cytotox 96 Non-radioactive Cytotoxicity Kit (Promega, Madison, Wis., U.S.A.) to yield T0h LDH values. Briefly, cells were lysed with the addition of 200 μL of Lysis Buffer (included in the Promega Kit) and lysates were further diluted 1:50 in Lysis Buffer. 50 μL of diluted cell lysate were transferred to a fresh 96 well culture plate. The assay was initiated with the addition of 50 μL of substrate per well. Color development was allowed to proceed for 10-15 minutes. The assay was terminated with the addition of 50 μL of Stop Solution (included in Promega kit). Optical densities were determined spectrophotometrically at 490 nm in a 96 well plate reader (SpectraMax 250, Molecular Devices, Sunnyvale, Calif., U.S.A.).
Test compounds were dissolved in 100% DMSO to prepare 10 mM stocks. Stocks were further diluted 1:250 in growth medium to yield working stocks of 40 μM test compound in 0.4% DMSO. Test compounds were serially diluted in growth medium containing 0.4% DMSO to maintain constant DMSO concentrations for all wells. 50 μL of fresh growth medium and 50 μL of diluted test compound were added to each culture well to give a final volume of 200 μL. The cells with and without individual test compounds were incubated for 72 hours at which time LDH activity was measured to yield T72h values. Optionally, the IC50 values can be determined with a least squares analysis program using compound concentration versus percent inhibition. % Inhibition=[1−(T72h test−T0h)/(T72h ctrl−T0h)]×100 wherein • T72h test=LDH activity at 72 hours in the presence of test compound, • T72h ctrl=LDH activity at 72 hours in the absence of test compound and • T0h=LDH activity at Time Zero

[2] = biological target: PDE 10a (Homo sapiens, UniProt Q9Y233); experiment: In vitro enzyme inhibition assay (3H-cAMP scintillation proximity assay); conditions: full-length recombinant PDE 10a, Sf9 cell lysate
Description: Full-length recombinant PDE 10a was expressed in Sf9 insect cells (Invitrogen, Carlsbad, Calif., U.S.A.) using the Bac-to-Bac™ Baculovirus Expression System (Life Technologies, Gaithersburg, Md., U.S.A.). 48 hours post infection, cells were harvested and resuspended in 20 mL (per 1 L culture) Lysis Buffer (50 mM Tris-HCl, pH 7.4, 50 mM NaCl, 1 mM MgCl2, 1.5 mM EDTA, 10% glycerol plus 20 μL Protease Inhibitor Cocktail Set III [CalBiochem, La Jolla, Calif., U.S.A.]). Cells were sonicated at 4° C. for 1 minute and centrifuged at 10,000 RPM for 30 minutes at 4° C. Supernatant was removed and stored at −20° C. for activity assays.
The test compounds were serially diluted in DMSO using two-fold dilutions to stock concentrations ranging typically from 200 μM to 1.6 μM (final concentrations in the assay range from 4 μM to 0.032 μM). 96-well assay isoplates (Wallac Inc., Atlanta, Ga., U.S.A.) were loaded with 50 μL dilution buffer per well (dilution buffer: 50 mM Tris/HCl pH 7.5, 8.3 mM MgCl2, 1.7 mM EDTA, 0.2% BSA). 2 μL of the serially diluted individual test compounds were added to individual wells,m followed by 25 μL of a 1:25,000 dilution of crude recombinant PDE 10a-containing Sf9 cell lysate (diluted in dilution buffer described above). The enzymatic assay was initiated by addition of 25 μL (0.025 μCi) ^3H cyclic AMP tracer [5′,8-^3H] adenosine 3′,5′-cyclic phosphate (Amersham Pharmacia Biotech., Piscataway, N.J., U.S.A.) that was diluted 1:1000 in assay buffer (assay buffer: 50 mM Tris/HCl pH 7.5, 8.3 mM MgCl2, 1.7 mM EDTA). Reactions were incubated at room temperature for 60 minutes and terminated by addition of 25 μL of 18 mg/mL Yttrium Scintillation Proximity Beads (Amersham Pharmacia Biotech., Piscataway, N.J., U.S.A.). Plates were sealed and incubated at room temperature for 60 minutes. Plates were read for 30 seconds/well using a Microbeta counter (Wallac Inc., Atlanta, Ga., U.S.A.). The IC50 values were determined by plotting compound concentration versus percent inhibition.

SMILES: COC(=O)c1c(-c2ccc(O)c(Cl)c2)c(C)n2c1-c1cc(OC)c(OC)cc1CC2
- % inhibition at a concentration of 10 μM ([1]; Examples of part a (Table 2a)): 97%
- IC50 ([2]; Examples of part a (Table 1a)): 56 nM

SMILES: CCOC(=O)c1c(-c2ccc(O)cc2OC)c(C)n2c1-c1cc(OC)c(OC)cc1CC2
- % inhibition at a concentration of 10 μM ([1]; Examples of part a (Table 2a)): 88%
- IC50 ([2]; Examples of part a (Table 1a)): 96 nM

SMILES: CCOC(=O)c1c(-c2ccc(O)c(Cl)c2)c(C)n2c1-c1cc(OC)c(OC)cc1CC2
- % inhibition at a concentration of 10 μM ([1]; Examples of part a (Table 2a)): 96%
- IC50 ([2]; Examples of part a (Table 1a)): 81 nM

SMILES: COC(=O)c1c(-c2ccc(O)cc2)c(C)n2c1-c1cc(OC)c(OC)cc1CC2
- % inhibition at a concentration of 10 μM ([1]; Examples of part a (Table 2a)): 92%
- IC50 ([2]; Examples of part a (Table 1a)): 62 nM

SMILES: CCOC(=O)c1c(-c2cc(OC)c(OC)c(OC)c2)c(C)n2c1-c1c(cccc1OC)CC2
- % inhibition at a concentration of 10 μM ([1]; Examples of part b (Table 2b)): 86%
- IC50 ([2]; Examples of part b (Table 1b)): 32 nM

SMILES: CCOC(=O)c1c(-c2ccc(F)cc2)c(C)n2c1-c1cc(OCC)c(OC)cc1CC2
- % inhibition at a concentration of 10 μM ([1]; Examples of part b (Table 2b)): 58%
- IC50 ([2]; Examples of part b (Table 1b)): 270 nM

SMILES: COC(=O)c1c(-c2cc(C)c(O)c(C)c2)c(C)n2c1-c1ccc(OC)c(OC)c1CC2
- % inhibition at a concentration of 10 μM ([1]; Examples of part b (Table 2b)): 87%
- IC50 ([2]; Examples of part b (Table 1b)): 34 nM

SMILES: CCOC(=O)c1c(-c2cc(F)cc(F)c2)c(C)n2c1-c1cc(OC)c(OC)cc1CC2
- % inhibition at a concentration of 10 μM ([1]; Examples of part a (Table 2a)): 94%
- IC50 ([2]; Examples of part a (Table 1a)): 490 nM

SMILES: CCOC(=O)c1c(-c2ccc(O)c(C)c2)c(C)n2c1-c1cc(OC)c(OC)cc1CC2
- % inhibition at a concentration of 10 μM ([1]; Examples of part a (Table 2a)): 96%
- IC50 ([2]; Examples of part a (Table 1a)): 46 nM
